Tested on: lymphoma cells (mixed, B-cell lymphoma, plasmacytoma, plasmoblastoma)
Assay: Cytokine stimulation of lymphoma cells off stroma, Alamar Blue assay
Assay type: cell-based, mouse
Conditions: 2 days after stroma removal; cytokines 0-50 ng/ml; IL-6: plasmacytomas and mixed, IL-7: B-cell and mixed lymphomas, not plasmoblastomas
Protocol: Luminescence was measured after 0 h, 24 h and 48 h after seeding of 2×10E4 luciferased lymphoma cells on the stroma cells; and F: RT-PCR analysis of transcripts from Hh pathway members and targets in spleen lymphocytes and different lymphoma cell lines.
Cell culture experiments: Lymphoma cells were infected with a retrovirus containing a pMSCV IRES puro-luc sequence and selected for 7 days with puromycin on puromycin-resistant Cdkn2a−/− stroma. […] Both were dissolved as x 1,000 stocks in DMSO. SCF was obtained from RDI, and all other cytokines were obtained from R&D systems. 5E1 anti-ShhN monoclonal antibody was obtained from the developmental hybridoma bank and was used at a concentration of 10 μg/ml. For cytokine stimulation and Shh inhibition in supernatant lymphoma cells were seeded into 96-well plates at a density of 20,000 cells per well and mitochondrial activity of viable cells was measured with an Alamar Blue Assay as described.

B1: IL-3: cytokine / growth factor (protein, UniProt P08700 20-152, looked up)
Interleukin-3: APMTQTTPLKTSWVNCSNMIDEIITHLKQPPLPLLDFNNLNGEDQDILMENNLRRPNLEAFNRAVKSLQNASAIESILKNLLPCLPLATAAPTRHPIHIKDGDWNEFRRKLTFYLKTLENAQAQQTTLSLAIF
For B1, the “number of viable lymphoma cells / survival after cytokine stimulation” value was “no effect on lymphocyte growth”.

From US20110044991A1, “METHODS AND COMPOSITIONS FOR TREATING LYMPHOMA AND MYELOMA” (IRM LLC, priority 2006, published 2011)
